Source: PubChem BioAssay AID651699 (Sanford-Burnham Center for Chemical Genomics, 2012)
The entries are a selection whose mix differs from that of the whole data set. The source made the active and inactive calls. No stated cut-off is given here; in the data, active means inhibition above about 36%; inactive means the rest.

By UniProt entry, the sequences of proteins in these tests, tags left out.
UniProt P61081, whole entry, looked up: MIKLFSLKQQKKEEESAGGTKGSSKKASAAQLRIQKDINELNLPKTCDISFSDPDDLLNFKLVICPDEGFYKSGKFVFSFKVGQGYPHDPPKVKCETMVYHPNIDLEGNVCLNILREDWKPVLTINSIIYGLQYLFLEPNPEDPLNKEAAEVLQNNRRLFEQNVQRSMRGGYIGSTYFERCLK
UniProt Q13564, whole entry, looked up: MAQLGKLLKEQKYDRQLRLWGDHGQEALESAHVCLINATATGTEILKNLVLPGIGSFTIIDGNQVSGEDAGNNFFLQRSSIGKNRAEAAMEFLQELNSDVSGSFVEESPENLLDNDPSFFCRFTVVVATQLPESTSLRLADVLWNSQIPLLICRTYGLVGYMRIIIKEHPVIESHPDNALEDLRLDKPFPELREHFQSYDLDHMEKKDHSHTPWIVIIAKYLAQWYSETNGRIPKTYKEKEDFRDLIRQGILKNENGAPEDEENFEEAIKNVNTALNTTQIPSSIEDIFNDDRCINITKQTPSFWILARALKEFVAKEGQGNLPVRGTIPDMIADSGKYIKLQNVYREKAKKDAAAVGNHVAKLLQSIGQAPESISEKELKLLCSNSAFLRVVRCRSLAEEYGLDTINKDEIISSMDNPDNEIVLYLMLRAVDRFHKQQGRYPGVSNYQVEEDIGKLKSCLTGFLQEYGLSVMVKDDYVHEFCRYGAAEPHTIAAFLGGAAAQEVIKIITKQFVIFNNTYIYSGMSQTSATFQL

Biological target: NEDD8-conjugating enzyme Ubc12 (Homo sapiens) + NEDD8-activating enzyme E1 regulatory subunit (Homo sapiens) (UniProt P61081+Q13564)
Assay: NEDD8 transfer onto cullin, blockade – biochemical, TR-FRET, uHTS, NAE and Ubc12, primary screen (AID 651699)
Settings: TR-FRET cullin neddylation, at 25 µM, hits give high values

**Q.** For O=[N+]([O-])c1cc([N+](=O)[O-])c(O)c([N+](=O)[O-])c1.c1ccc(Oc2ccncc2)cc1, which inhibition is on record?
**A.** inactive: -36.3%

**Q.** With CCOC(=O)c1ccc(NP(C)(=O)Oc2ccc(OC)cc2)cc1 (stereo not drawn) as the molecule, how does the inhibition read?
**A.** inactive: 5.15%

**Q.** With CCOP(C)(=S)SCC(=O)NC(C)C(=O)O (stereo not drawn) as the molecule, how does the inhibition read?
**A.** inactive: -3.65%

**Q.** With CP(=O)(Nc1ccccn1)Oc1ccc(Cl)cc1 (stereo not drawn) as the molecule, how does the inhibition read?
**A.** inactive: 7.75%

**Q.** For CP(=O)(Oc1ccccc1)OC(c1ccccc1)C(F)(F)F (stereo not drawn), which inhibition is on record?
**A.** inactive: 6.07%

**Q.** How did the inhibition turn out when CP(=O)(Nc1ccc(SC(F)(F)F)cc1)Oc1ccc(Cl)cc1 (stereo not drawn) was run?
**A.** inactive: -0.04%

**Q.** Which inhibition does the source give for Cc1cccc(C)c1OP(C)(=O)Nc1ccc(SC(F)(F)F)cc1 (stereo not drawn) here?
**A.** inactive: 1.45%

**Q.** With Cc1ccc(Nc2c([N+](=O)[O-])cc([N+](=O)[O-])cc2[N+](=O)[O-])cc1 as the molecule, how does the inhibition read?
**A.** inactive: -42.2%

**Q.** Cc1cc(C)cc(OP(C)(=O)Nc2ccc(SC(F)(F)F)cc2)c1 (stereo not drawn) was tested. Which inhibition did it give?
**A.** inactive: -2.78%

**Q.** How did the inhibition turn out when CP(=O)(NC(=O)Nc1ccccc1)Oc1ccccc1 (stereo not drawn) was run?
**A.** inactive: 7.01%

**Q.** How did the inhibition turn out when CCc1ccc(OP(C)(=O)N2CCN(c3ccc([N+](=O)[O-])cc3)CC2)cc1 (stereo not drawn) was run?
**A.** inactive: -31.6%

**Q.** CP(=S)(Nn1cnnc1)Oc1ccccc1 (stereo not drawn) was tested. Which inhibition did it give?
**A.** inactive: 7.36%

**Q.** Which inhibition does the source give for CP(=O)(Nc1ccccc1Br)Oc1ccccc1 (stereo not drawn) here?
**A.** inactive: 0.52%

**Q.** How did the inhibition turn out when COc1ccccc1OP(C)(=O)Nc1ccccc1 (stereo not drawn) was run?
**A.** inactive: 2.6%

**Q.** For Cc1ccc(NP(C)(=O)Oc2ccccc2)c(C)c1 (stereo not drawn), which inhibition is on record?
**A.** inactive: 0.97%

**Q.** COc1ccccc1OP(C)(=O)Nc1ccc(C)cc1 (stereo not drawn) was tested. Which inhibition did it give?
**A.** inactive: 1.53%

**Q.** For CCOC(=O)c1ccc(NP(C)(=O)Oc2ccccc2)cc1 (stereo not drawn), which inhibition is on record?
**A.** inactive: -3.45%

**Q.** For Cc1cc(C)cc(OP(C)(N)=O)c1 (stereo not drawn), which inhibition is on record?
**A.** inactive: 0.44%

**Q.** Which inhibition does the source give for COc1ccc(OP(C)(=O)Nc2cccc(F)c2)cc1 (stereo not drawn) here?
**A.** inactive: 4.29%

**Q.** Which inhibition does the source give for COc1ccccc1OP(C)(=O)Nc1cc(Cl)ccc1C (stereo not drawn) here?
**A.** inactive: -3.2%

**Q.** For O=[N+]([O-])c1cc([N+](=O)[O-])c(Nc2cccnc2)c([N+](=O)[O-])c1, which inhibition is on record?
**A.** inactive: -39.1%

**Q.** For O=[N+]([O-])c1ccc2c(c1)C=Nc1ccccc1O2, which inhibition is on record?
**A.** inactive: -14.1%

**Q.** How did the inhibition turn out when Cc1cccc(C)c1OP(C)(N)=O (stereo not drawn) was run?
**A.** inactive: -2.41%

**Q.** CC(C)(C)c1ccc(OP(C)(=O)Nc2ccc(SC(F)(F)F)cc2)cc1 (stereo not drawn) was tested. Which inhibition did it give?
**A.** inactive: -0.06%

**Q.** COc1ccccc1-c1ccccn1.O=[N+]([O-])c1cc([N+](=O)[O-])c(O)c([N+](=O)[O-])c1 was tested. Which inhibition did it give?
**A.** inactive: -24.5%

**Q.** Which inhibition does the source give for CCN(CC)CCCOC(=O)C(O)(c1ccccc1)c1ccccc1 here?
**A.** inactive: 0.17%

**Q.** Which inhibition does the source give for Cc1ccc(C)c(NP(C)(=O)Oc2ccccc2)c1 (stereo not drawn) here?
**A.** inactive: -1.96%

**Q.** With Cc1cc(C)cc(OP(C)(=O)Nc2ccccn2)c1 (stereo not drawn) as the molecule, how does the inhibition read?
**A.** inactive: 7.98%

**Q.** How did the inhibition turn out when CP(=O)(Nc1cccc(Br)c1)Oc1ccccc1 (stereo not drawn) was run?
**A.** inactive: 0.49%

**Q.** COc1ccccc1OP(C)(=O)Nc1cccc(Br)c1 (stereo not drawn) was tested. Which inhibition did it give?
**A.** inactive: -3.79%

**Q.** CCOC(=O)c1ccc(NP(C)(=O)Oc2cc(C)cc(C)c2)cc1 (stereo not drawn) was tested. Which inhibition did it give?
**A.** inactive: 4.94%

**Q.** Cc1cc(C)cc(OP(C)(=O)Nc2ccc(C)cc2C)c1 (stereo not drawn) was tested. Which inhibition did it give?
**A.** inactive: -1.55%

**Q.** Which inhibition does the source give for CC1=NCCc2c1[nH]c1ccccc21.O=[N+]([O-])c1cc([N+](=O)[O-])c(O)c([N+](=O)[O-])c1 here?
**A.** inactive: 4.31%

**Q.** Which inhibition does the source give for O=C(O)c1cccc(Nc2c([N+](=O)[O-])cc([N+](=O)[O-])cc2[N+](=O)[O-])c1 here?
**A.** inactive: -44.2%

**Q.** How did the inhibition turn out when CN1CCCCC1COC(=O)C1(O)c2ccccc2CCc2ccccc21 (stereo not drawn) was run?
**A.** inactive: -1.13%

**Q.** Which inhibition does the source give for COc1ccccc1OP(C)(=O)Nc1c(C)cccc1C (stereo not drawn) here?
**A.** inactive: 5.2%

**Q.** With COc1ccc(-c2ccccn2)cc1.O=[N+]([O-])c1cc([N+](=O)[O-])c(O)c([N+](=O)[O-])c1 as the molecule, how does the inhibition read?
**A.** active: 46.6%

**Q.** Which inhibition does the source give for CCCOc1ccc(NP(C)(=O)Oc2ccc(Cl)cc2)cc1 (stereo not drawn) here?
**A.** inactive: -3.95%

**Q.** For CP(=O)(Nc1ccc(SC(F)(F)F)cc1)Oc1ccccc1 (stereo not drawn), which inhibition is on record?
**A.** inactive: 4.05%

**Q.** Which inhibition does the source give for CCOC(=O)C(CC)C1=NC(C)(C)Cc2ccccc21.O=[N+]([O-])c1cc([N+](=O)[O-])c(O)c([N+](=O)[O-])c1 (stereo not drawn) here?
**A.** inactive: -20.5%

**Q.** CC1=C2N=C(C=C3N=C(C(C)=C4[N-][C@@](C)([C@@H]5N=C1[C@](C)(CCC(=O)NC[C@@H](C)OP(=O)([O-])O[C@H]1[C@@H](O)[C@@H](n6cnc7cc(C)c(C)cc76)O[C@@H]1CO)[C@H]5CC(N)=O)[C@@](C)(CC(N)=O)[C@@H]4CCC(N)=O)[C@@](C)(CC(N)=O)[C@@H]3CCC(N)=O)C(C)(C)[C@@H]2CCC(N)=O.[C-]#N.[Co+3] was tested. Which inhibition did it give?
**A.** inactive: -25.4%

**Q.** How did the inhibition turn out when O=[N+]([O-])c1cc([N+](=O)[O-])c(Nc2nnnn2CCO)c([N+](=O)[O-])c1 was run?
**A.** inactive: -29.7%

**Q.** Which inhibition does the source give for O=[N+]([O-])c1cc([N+](=O)[O-])c(-c2cnn(-c3ccccc3)c2)c([N+](=O)[O-])c1 here?
**A.** inactive: -44.3%

**Q.** For Cc1nc2ccc3ccccc3c2s1.O=[N+]([O-])c1cc([N+](=O)[O-])c(O)c([N+](=O)[O-])c1, which inhibition is on record?
**A.** inactive: -49.8%

**Q.** O=[N+]([O-])c1cc([N+](=O)[O-])c(-n2nnc3ccccc32)c([N+](=O)[O-])c1 was tested. Which inhibition did it give?
**A.** inactive: -25.8%

**Q.** How did the inhibition turn out when CN(Cc1cccnc1)C(=O)COc1ccc(Cl)c(Cl)c1.O=[N+]([O-])c1cc([N+](=O)[O-])c(O)c([N+](=O)[O-])c1 was run?
**A.** inactive: -61.5%

**Q.** How did the inhibition turn out when CP(=O)(Nc1ccc2c(c1)OCCO2)Oc1ccccc1 (stereo not drawn) was run?
**A.** inactive: -2.47%

**Q.** Which inhibition does the source give for Cc1ccccc1NP(C)(=O)Nc1ccccc1C here?
**A.** inactive: 4.95%

**Q.** O=[N+]([O-])c1cc([N+](=O)[O-])c(C(F)(F)F)c([N+](=O)[O-])c1O was tested. Which inhibition did it give?
**A.** inactive: -25.7%

**Q.** With CP(=O)(Nc1ccc(SC(F)(F)F)cc1)Oc1ccc(F)cc1 (stereo not drawn) as the molecule, how does the inhibition read?
**A.** inactive: 1.1%

**Q.** How did the inhibition turn out when CCOP(C)(=S)SCC(=O)NC(C)(CC)C(=O)O (stereo not drawn) was run?
**A.** inactive: -10.2%

**Q.** O=[N+]([O-])c1ccc(OP2(=O)COCCO2)cc1 (stereo not drawn) was tested. Which inhibition did it give?
**A.** inactive: -18.4%

**Q.** How did the inhibition turn out when O=[N+]([O-])c1cc([N+](=O)[O-])c(NCC2CCS(=O)(=O)C2)c([N+](=O)[O-])c1 (stereo not drawn) was run?
**A.** inactive: -38.3%
